Activity change, negative = inhibition data for 64 compounds are collected here from PubChem BioAssay AID720709 (National Center for Advancing Translational Sciences (NCATS), 2013).

Amino acid sequences for entries named in this document (tags omitted). A change or cut given only in a name is not applied to a line headed by its entry.
UniProt O95398: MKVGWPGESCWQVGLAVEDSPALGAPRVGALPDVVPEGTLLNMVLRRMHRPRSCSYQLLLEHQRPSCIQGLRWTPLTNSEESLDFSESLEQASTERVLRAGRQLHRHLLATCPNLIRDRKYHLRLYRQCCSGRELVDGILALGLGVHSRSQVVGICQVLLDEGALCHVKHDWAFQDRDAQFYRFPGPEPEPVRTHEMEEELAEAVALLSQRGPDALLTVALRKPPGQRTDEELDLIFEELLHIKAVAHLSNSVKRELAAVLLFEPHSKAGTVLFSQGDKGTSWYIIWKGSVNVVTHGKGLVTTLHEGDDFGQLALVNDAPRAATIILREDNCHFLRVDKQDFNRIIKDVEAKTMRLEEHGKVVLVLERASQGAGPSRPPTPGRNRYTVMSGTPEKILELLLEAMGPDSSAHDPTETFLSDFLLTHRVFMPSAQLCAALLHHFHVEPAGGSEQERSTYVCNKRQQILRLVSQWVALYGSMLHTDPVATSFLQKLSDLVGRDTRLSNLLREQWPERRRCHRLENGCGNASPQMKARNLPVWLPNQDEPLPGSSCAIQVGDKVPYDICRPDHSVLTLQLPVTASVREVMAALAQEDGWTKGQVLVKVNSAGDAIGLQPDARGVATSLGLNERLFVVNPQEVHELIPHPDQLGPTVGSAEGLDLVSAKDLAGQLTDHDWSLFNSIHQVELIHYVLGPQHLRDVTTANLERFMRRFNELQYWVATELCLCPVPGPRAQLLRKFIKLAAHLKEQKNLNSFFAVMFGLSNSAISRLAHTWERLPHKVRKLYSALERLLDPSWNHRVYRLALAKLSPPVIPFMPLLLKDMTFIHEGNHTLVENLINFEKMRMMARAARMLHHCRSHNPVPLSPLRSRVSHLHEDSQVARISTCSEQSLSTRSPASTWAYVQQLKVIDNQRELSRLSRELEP

Only a part is listed here, and it is no random draw. Inconclusive results are not listed. The source made the active and inactive calls. The call rests on the fitted dose curve; in most records, active means well fitted inhibition curve with a large enough effect; inconclusive means small, poorly fitted or top-dose-only effect; inactive means no such curve, though single readings can be large or run the other way.

In this assay the target is Rap guanine nucleotide exchange factor 3 (Homo sapiens) (UniProt O95398). The assay can be described thus: qHTS for Antagonist of cAMP-regulated guanine nucleotide exchange factor 3 (EPAC1): primary screen.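 Further: plate controls were vehicle for no effect and positive control for full effect; nearly all actives have a fitted effect of over 50% in size.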 To be noted: EPAC1 GEF assay, Rap1b-BODIPY-GDP exchange fluorescence; at 115 µM (top of the series). Background: In qHTS, concentration-response curves come from the screen itself.
In the case of `N#C/C(=C\c1ccc(N(CCBr)CCBr)cc1)C(N)=O`, the activity change, negative = inhibition was inactive: -0.307%.
As for `CC(=O)c1ccc(N2CC2c2ccncc2)cc1` (centres undefined), the activity change, negative = inhibition is inactive: 9.43%.
On to `COC(=O)C1(C)COP(=O)(NCc2ccccc2)OC1` (centres undefined), for which the activity change, negative = inhibition was inactive: 6.63%.
For the compound `CC(=O)Nc1ccc([As](=O)(O)O)c(O)c1`, the activity change, negative = inhibition was inactive: -4.04%.
In the case of `CC(=O)Nc1ccc(Oc2c([N+](=O)[O-])cc([N+](=O)[O-])cc2[N+](=O)[O-])cc1`, the activity change, negative = inhibition was inactive: -19.8%.
In the case of `O=P1(Nc2nc3ccc(Cl)cc3s2)COc2ccccc2O1` (centres undefined), the activity change, negative = inhibition is inactive: 7.76%.
Turning to `CCOc1ccc(C2=NCC(CBr)S2)cc1` (centres undefined), the activity change, negative = inhibition was inactive: -12.6%.
For the compound `CC(C)(C)C(=O)NC(Sc1ccccc1)C(Cl)(Cl)Cl` (centres undefined), the activity change, negative = inhibition is inactive: -9.81%.
For `CCc1cc(O)c([N+](=O)[O-])c(C)c1[N+](=O)[O-]`, the activity change, negative = inhibition was inactive: -0.549%.
Turning to `O=P(Nc1nccs1)(c1ccccc1)c1ccccc1`, the activity change, negative = inhibition was inactive: 1.93%.
As to `CC(C)C(=O)NC(Sc1ccccc1)C(Cl)(Cl)Cl` (centres undefined), the activity change, negative = inhibition was inactive: -16%.
Consider `c1nnnn1CCn1cnnn1`, for which the activity change, negative = inhibition was inactive: -2.22%.
For the compound `O=[As](O)(c1ccccc1)c1ccc(O)cc1`, the activity change, negative = inhibition is inactive: 4.67%.
As to `O=[N+]([O-])c1ncn(CCn2cnc([N+](=O)[O-])n2)n1`, the activity change, negative = inhibition is inactive: -0.794%.
Turning to `CC(=O)NC(SC(=S)N(C)C)C(Cl)(Cl)Cl` (centres undefined), the activity change, negative = inhibition is inactive: -3.77%.
As to `O=[N+]([O-])c1ccc(O)c(/C=N/Nc2ccc([N+](=O)[O-])cc2[N+](=O)[O-])c1`, the activity change, negative = inhibition was inactive: -20.3%.
`O=C(OC1CN2CCC1CC2)c1cccc(Cl)c1` (centres undefined): the activity change, negative = inhibition is inactive: 0.907%.
`Nc1ccc([As](=O)(O)c2ccc([N+](=O)[O-])cc2)cc1`: the activity change, negative = inhibition was inactive: -1.26%.
On to `C(Cc1nn[nH]n1)Cc1nn[nH]n1`, for which the activity change, negative = inhibition is inactive: -6.88%.
Under `CN(C)C1(CNC(=O)c2ccc(Cl)c(S(N)(=O)=O)c2)CCCCC1` stands inactive: 2.02%; under `O=P(Nc1ccccn1)(c1ccc(Br)cc1)c1ccc(Br)cc1`, inactive: 0.688%.
As for `COc1ccc(N)c([N+](=O)[O-])c1[N+](=O)[O-]`, the activity change, negative = inhibition is inactive: 6.29%.
In the case of `O=P(Nc1nc2ccccc2s1)(c1ccccc1)c1ccccc1`, the activity change, negative = inhibition is inactive: -22.1%.
Take `C[C@H]1OP(=O)(Oc2ccccc2)[C@H](O)[C@H](O)[C@H]1N=[N+]=[N-]` (some centres undefined): the activity change, negative = inhibition is inactive: 6.69%.
Next, `O=[N+]([O-])c1ncn(CCn2ncnc2[N+](=O)[O-])n1`: inactive: 3.7%; `CC(C)(C)C(=O)NC(Sc1ccncn1)C(Cl)(Cl)Cl` (centres undefined): inactive: 12.1%.
`O=C(O)CNc1ccc([As](=O)(O)O)cc1`: the activity change, negative = inhibition was inactive: 1.59%.
`O=[N+]([O-])c1cccc(NC2=NCC(CBr)S2)c1` (centres undefined): the activity change, negative = inhibition was inactive: -5.6%.
As for `COC(=O)C1(C)COP(=O)(Nc2ccccc2)OC1` (centres undefined), the activity change, negative = inhibition is inactive: -4.67%.
As to `O=P1(N(CCCl)CCCl)OCCCS1` (centres undefined), the activity change, negative = inhibition was inactive: 2.4%.
As for `O=C(Nc1cc([As](=O)(O)O)ccc1O)c1ccccc1`, the activity change, negative = inhibition was inactive: -0.623%.
`CCN(/C(=N/P(=O)(N1CCOCC1)N1CCOCC1)N1CCOCC1)c1ccc(OC)cc1`: the activity change, negative = inhibition was inactive: 2.16%.
Next, `Nc1ccc([As](=O)(O)c2ccc(N)cc2)cc1`: inactive: -13.1%; `c1cc(-c2nn[nH]n2)ccc1-c1nn[nH]n1`: inactive: 11.3%; `CC1CCN(C(=O)Oc2c(Cl)cc(Cl)c3cccnc23)CC1`: inactive: 3.38%.
With `CC(C)=N/N=C(\N)N[N+](=O)[O-]`, the activity change, negative = inhibition was inactive: 7.88%.
Take `CC(C)c1nc(Nc2ccccc2)n(P(=O)(N(C)C)N(C)C)n1`: the activity change, negative = inhibition was inactive: 11.2%.
For `CN(C)C(=O)OCCc1n(C)cc[n+]1C`, the activity change, negative = inhibition is inactive: -0.324%.
Next, `COc1ccc(C2=NCC(CBr)S2)cc1` (centres undefined): inactive: -2%; `Cc1ccc(NP(=O)(Oc2ccccc2)Oc2ccccc2)nc1`: inactive: -24%; `CCc1nc2c(n1)c1c(non1O)c1c2no[n+]1[O-]`: inactive: -16.7%.
In the case of `CC(=O)N1C2C3N(C(C)=O)C1C1N(C(C)=O)C(C(N1C(C)=O)N3C(C)=O)N2C(C)=O`, the activity change, negative = inhibition is inactive: -8.19%.
Consider `O=[N+]([O-])c1cccc2n[nH]nc12`, for which the activity change, negative = inhibition was inactive: -10.6%.
For the compound `Oc1ccccc1CNc1ccccn1`, the activity change, negative = inhibition was inactive: 3.05%.
As to `O=C(NC(Sc1ccncn1)C(Cl)(Cl)Cl)c1ccccc1` (centres undefined), the activity change, negative = inhibition is inactive: 10.1%.
Consider `CC(C)CC(=O)NC(Sc1ccc(Cl)cc1)C(Cl)(Cl)Cl` (centres undefined), for which the activity change, negative = inhibition is inactive: -7.32%.
On to `Nc1cc(N)c2nonc2c1[N+](=O)[O-]`, for which the activity change, negative = inhibition is inactive: -11.8%.
As for `O=[N+]([O-])C1C(O)C(O)C([N+](=O)[O-])C(O)C1O` (centres undefined), the activity change, negative = inhibition is inactive: 0.997%.
On to `Cc1ccc(N/C(=N/P(=O)(N2CCOCC2)N2CCOCC2)N2CCOCC2)cc1`, for which the activity change, negative = inhibition is inactive: 0.0174%.
Regarding `NC(=O)c1cc([N+](=O)[O-])cc([N+](=O)[O-])c1N`, the activity change, negative = inhibition is inactive: -0.982%.
For `Clc1ccc(Cl)c(NC2=NCC(CBr)S2)c1` (centres undefined), the activity change, negative = inhibition was inactive: -6.03%.
In the case of `CN1CCCC(OC(=O)C(c2ccccc2)c2ccccc2)C1` (centres undefined), the activity change, negative = inhibition is inactive: 6.56%.
For `COc1ccccc1OP(=O)(Nc1ccc(C)cn1)Oc1ccccc1OC`, the activity change, negative = inhibition was inactive: -17.5%.
`Cc1ccc(OP(=O)(Nc2nccs2)Oc2ccc(C)cc2)cc1`: the activity change, negative = inhibition was inactive: -2.95%.
For the compound `Nc1cccc2ccc([As](=O)(O)O)cc12`, the activity change, negative = inhibition was inactive: 3.49%.
Take `CCN(N=Nc1nonc1N)c1nonc1N`: the activity change, negative = inhibition is inactive: 2.13%.
Turning to `CN(C)P(=O)(N(C)C)n1c(Nc2ccccc2)nnc1-c1ccccc1`, the activity change, negative = inhibition is inactive: -4.74%.
As for `O=P(Nc1nc2ccc(Cl)cc2s1)(c1ccccc1)c1ccccc1`, the activity change, negative = inhibition was inactive: 3.86%.
Consider `O=C(O)c1ccccc1[As](=O)(O)O`, for which the activity change, negative = inhibition is inactive: -12.3%.
In the case of `CC(=O)Nc1ccc([As](=O)(O)O)cc1`, the activity change, negative = inhibition was inactive: -7.85%.
With `CCCC1OP(N)(=O)OCC1CC` (centres undefined), the activity change, negative = inhibition was inactive: 9.88%.
With `CCOP(=O)(Nc1ccccc1)OCC`, the activity change, negative = inhibition is inactive: 10.3%.
As for `Cc1cc(SC(NC(=O)c2ccc(F)cc2)C(Cl)(Cl)Cl)ncn1` (centres undefined), the activity change, negative = inhibition is inactive: -3.42%.
Take `Cc1ccc(NP(=O)(Oc2ccccc2F)Oc2ccccc2F)nc1`: the activity change, negative = inhibition is inactive: 11.6%.
